Measurements reported in patent US5795861A, “Methods for regulating gastrointestinal motility” (Amylin Pharmaceuticals Inc., priority 1995, dated 1998).

Columns and labels:
[1] = solubility and stability compared to human amylin; assay type: physicochemical
[2] = tripro-amylin plasma peaks in 14-day study; assay type: in vivo, human
Description: 72 subjects with insulin-dependent diabetes mellitus participated in a 14-day clinical trial. Each subject was randomly assigned to one of four treatment groups, receiving placebo, 30, 100 or 300 μg tripro-amylin by subcutaneous injection three times a day for 14 days. The subjects also remained on their usual insulin regimen throughout the study. On days 1 (baseline), 7 and 14, standardized meal tolerance tests were performed.

[3] = plasma AC-0137 levels after IV bolus or infusion (clinical study); assay type: in vivo, human; settings: continuous IV infusion
Description: Subjects in each dose group underwent a two period crossover to examine intravenous (IV) bolus versus IV infusion of drug. Each period consisted of a three-day confinement to the study unit. On each occasion, the initial day of confinement was allowed for acclimatization to the study unit. The second and third days constituted an imbedded crossover of placebo versus active medication. […] An imbedded cross-over design for the administration of drug and placebo on Days 2 and 3 of this admission was employed in a manner similar to that used during the first admission. The six subjects assigned to the placebo group received placebo on each of the study days.
On study days, intravenous catheters were inserted at least 30 minutes prior to the start of the study. 15 minutes before dosing, the subjects took their usual insulin dose via subcutaneous injection. […] The infusion rate was designed to administer the assigned amount of drug over the two hour period. Thirty minutes later, the subjects ingested their normal breakfasts.

Tripro-amylin plasma peaks ([2]; 30 micrograms 3 times daily s.c.) [picomoles/liter]	Tripro-amylin plasma peaks ([2]; 100 micrograms 3 times daily s.c.) [picomoles/liter]	Tripro-amylin plasma peaks ([2]; 300 micrograms 3 times daily s.c.) [picomoles/liter]	time to levels approximating steady-state [3] [min]	Compound	solubility and stability characteristics [1]
				CC(C)C[C@H](NC(=O)[C@H](CCCNC(=N)N)NC(=O)[C@H](CCC(N)=O)NC(=O)[C@@H](NC(=O)[C@H](C)NC(=O)[C@@H]1CSSC[C@H](NC(=O)[C@@H](N)CCCCN)C(=O)N[C@@H](CC(N)=O)C(=O)N[C@@H]([C@@H](C)O)C(=O)N[C@@H](C)C(=O)N[C@@H]([C@@H](C)O)C(=O)N1)[C@@H](C)O)C(=O)N[C@@H](C)C(=O)N[C@@H](CC(N)=O)C(=O)N[C@@H](Cc1ccccc1)C(=O)N[C@@H](CC(C)C)C(=O)N[C@H](C(=O)N[C@@H](Cc1c[nH]cn1)C(=O)N[C@@H](CO)C(=O)N[C@@H](CO)C(=O)N[C@@H](CC(N)=O)C(=O)N[C@@H](CC(N)=O)C(=O)N[C@@H](Cc1ccccc1)C(=O)NCC(=O)N1CCC[C@H]1C(=O)N[C@H](C(=O)N[C@@H](CC(C)C)C(=O)N1CCC[C@H]1C(=O)N1CCC[C@H]1C(=O)N[C@H](C(=O)N[C@@H](CC(N)=O)C(=O)N[C@H](C(=O)NCC(=O)N[C@@H](CO)C(=O)N[C@@H](CC(N)=O)C(=O)N[C@H](C(=O)N[C@@H](Cc1ccc(O)cc1)C(N)=O)[C@@H](C)O)C(C)C)[C@@H](C)O)C(C)C)C(C)C [^25 Pro^26 Val^28,29 Pro-h-amylin]	more desirable solubility and stability characteristics
				CC[C@H](C)[C@H](NC(=O)[C@@H]1CCCN1C(=O)CNC(=O)[C@H](Cc1ccccc1)NC(=O)[C@H](CC(N)=O)NC(=O)[C@H](CC(N)=O)NC(=O)[C@H](CO)NC(=O)[C@H](CO)NC(=O)[C@H](CCCNC(=N)N)NC(=O)[C@@H](NC(=O)[C@H](CC(C)C)NC(=O)[C@H](Cc1ccccc1)NC(=O)[C@H](CC(N)=O)NC(=O)[C@H](C)NC(=O)[C@H](CC(C)C)NC(=O)[C@H](CCCNC(=N)N)NC(=O)[C@H](CCC(N)=O)NC(=O)[C@@H](NC(=O)[C@H](C)NC(=O)[C@@H]1CSSC[C@H](NC(=O)[C@@H](N)CCCCN)C(=O)N[C@@H](CC(N)=O)C(=O)N[C@@H]([C@@H](C)O)C(=O)N[C@@H](C)C(=O)N[C@@H]([C@@H](C)O)C(=O)N1)[C@@H](C)O)C(C)C)C(=O)N[C@@H](CC(C)C)C(=O)N1CCC[C@H]1C(=O)N[C@@H](CO)C(=O)N[C@H](C(=O)N[C@@H](CC(N)=O)C(=O)N[C@H](C(=O)NCC(=O)N[C@@H](CO)C(=O)N[C@@H](CC(N)=O)C(=O)N[C@H](C(=O)N[C@@H](Cc1ccc(O)cc1)C(N)=O)[C@@H](C)O)C(C)C)[C@@H](C)O [^18 Arg^25,28 Pro-h-amylin]	more desirable solubility and stability characteristics
22 ± 4	44 ± 14	173 ± 40	≤ 30	CC[C@H](C)[C@H](NC(=O)[C@@H]1CCCN1C(=O)CNC(=O)[C@H](Cc1ccccc1)NC(=O)[C@H](CC(N)=O)NC(=O)[C@H](CC(N)=O)NC(=O)[C@H](CO)NC(=O)[C@H](CO)NC(=O)[C@H](Cc1c[nH]cn1)NC(=O)[C@@H](NC(=O)[C@H](CC(C)C)NC(=O)[C@H](Cc1ccccc1)NC(=O)[C@H](CC(N)=O)NC(=O)[C@H](C)NC(=O)[C@H](CC(C)C)NC(=O)[C@H](CCCNC(=N)N)NC(=O)[C@H](CCC(N)=O)NC(=O)[C@@H](NC(=O)[C@H](C)NC(=O)[C@@H]1CSSC[C@H](NC(=O)[C@@H](N)CCCCN)C(=O)N[C@@H](CC(N)=O)C(=O)N[C@@H]([C@@H](C)O)C(=O)N[C@@H](C)C(=O)N[C@@H]([C@@H](C)O)C(=O)N1)[C@@H](C)O)C(C)C)C(=O)N[C@@H](CC(C)C)C(=O)N1CCC[C@H]1C(=O)N1CCC[C@H]1C(=O)N[C@H](C(=O)N[C@@H](CC(N)=O)C(=O)N[C@H](C(=O)NCC(=O)N[C@@H](CO)C(=O)N[C@@H](CC(N)=O)C(=O)N[C@H](C(=O)N[C@@H](Cc1ccc(O)cc1)C(N)=O)[C@@H](C)O)C(C)C)[C@@H](C)O [AC-0137, ^25,28,29 Pro-h-amylin]	
